## Reported properties for industrial, environmental and drug-like chemicals

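The OPERA project collected these measurements from public sources as training and test data for property models. One number stands for a compound and property, with no spread given. Method and conditions are not stated for these values. A value may pool stereoisomers or salt forms, and the file does not say which form was measured. Some upstream entries may be estimates or bounds without being marked so.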

Melting points are in °C.
Boiling points are in °C, nominally at 760 mmHg.
The octanol-water partition coefficient is given as log10; larger values mean a more lipophilic compound.
Water solubility is log10 of mol/L, nominally at 25 °C; higher is more soluble.
Vapor pressure is log10 of mmHg; the set covers 15 to 30 °C, mostly 20 to 25 °C.
The Henry's law constant is on a log10 scale in atm·m3/mol (set defined at 25 °C); higher favours air over water.
fu is the fraction unbound in human plasma, from 0 to 1.
Clint is human hepatic intrinsic clearance in µL/min per million cells; 0 means that no clearance was seen.
Cells with "n/a" have no entry in this list.

* N=C(Nc1ccccc1)Nc1ccccc1: BP 170 °C; log Kow 2.055; log Henry constant -12.32 (log10 atm·m3/mol)
* ClCCCCCCCl: log Kow 3.5; water solubility -3.848 (log10 mol/L); log VP -1.072 (log10 mmHg)
* O=C(O)C1N=C(c2ccccc2)c2cc(Cl)ccc2NC1=O (centres undefined): log Kow 3; water solubility -4.103 (log10 mol/L); fu 0.09
* C=CC1(C)OC(=O)N(c2cc(Cl)cc(Cl)c2)C1=O (centres undefined): log Henry constant -7.875 (log10 atm·m3/mol); hepatic Clint 18.34 µL/min/10^6 cells
* CC(=O)Nc1c2sscc-2n(C)c1=O: MP 274.5 °C; water solubility -3.036 (log10 mol/L)
* Clc1cc(Cl)c(-c2ccccc2Cl)cc1Cl: log Kow 5.78; log VP -3.408 (log10 mmHg)
* Cc1cc(C(C)(C)c2cc(C)c(O)c(C)c2)cc(C)c1O: log Kow 4.5; water solubility -4.953 (log10 mol/L); log VP -7.483 (log10 mmHg)
* CCOP(=S)(OCC)Oc1cc(-c2ccccc2)on1: log VP -6.001 (log10 mmHg); log Henry constant -6.665 (log10 atm·m3/mol)
* Cn1sc(Cl)cc1=O: MP 54.5 °C; log Kow 0.401; log VP -1.745 (log10 mmHg)
* CCCCNC(=O)OCC#CI: fu 0.719; hepatic Clint 486 µL/min/10^6 cells
* O=c1n(Cl)c(=O)n(Cl)c(=O)n1Cl: log Kow 0.26; log VP -4.824 (log10 mmHg)
* O=C1C[NH2+]CC2c3ccccc3CC[NH+]12.O=P([O-])(O)O.O=P([O-])(O)O (centres undefined): log Kow -1; log VP -6.103 (log10 mmHg)
* CCCC1(CC)C(=O)NC(=O)NC1=O: MP 144 °C; water solubility -1.491 (log10 mol/L)
* [S-]c1nc2ccccc2[nH]1.[S-]c1nc2ccccc2[nH]1.[Zn+2]: water solubility -3.908 (log10 mol/L); log VP -6.815 (log10 mmHg)
* CCCCOC(=O)CC(SP(=S)(OCC(CC)CCCC)OCC(CC)CCCC)C(=O)OCCCC (centres undefined): water solubility -8.686 (log10 mol/L); log VP -3.723 (log10 mmHg)
* CCCOc1nn(C(=O)[N-]S(=O)(=O)c2ccccc2C(=O)OC)c(=O)n1C.[Na+]: MP 230 °C; water solubility -1 (log10 mol/L); fu 0.00891; hepatic Clint 0.91 µL/min/10^6 cells
* Cc1ccccc1OP(=O)(Oc1ccccc1C)Oc1ccccc1C: log Kow 6.3; log VP -4.836 (log10 mmHg)
* CC(C)C1CCC(Cc2ccc(Cl)cc2)C1(O)Cn1cncn1 (centres undefined): fu 0.0132; hepatic Clint 101 µL/min/10^6 cells
* CC(C)C[C@H]1C(=O)N2CCC[C@H]2[C@]2(O)O[C@](NC(=O)[C@@H]3C=C4c5cccc6[nH]c(Br)c(c56)C[C@H]4N(C)C3)(C(C)C)C(=O)N12: log Kow 3.5; water solubility -3.882 (log10 mol/L); hepatic Clint 81.15 µL/min/10^6 cells
* CC(=O)OC1=CC[C@H]2[C@@H]3CC[C@H]4CC=CC[C@]4(C)[C@H]3CC[C@]12C: MP 98 °C; water solubility -7.568 (log10 mol/L)

Excerpt, the opening 3 entries:

| compound | MP (°C) | BP (°C) | log Kow | water solubility (log10 mol/L) | log VP (log10 mmHg) | log Henry constant (log10 atm·m3/mol) | fu | hepatic Clint (µL/min/10^6 cells) |
|---|---|---|---|---|---|---|---|---|
| N=C(Nc1ccccc1)Nc1ccccc1 | n/a | 170 | 2.055 | n/a | n/a | -12.32 | n/a | n/a |
| ClCCCCCCCl | n/a | n/a | 3.5 | -3.848 | -1.072 | n/a | n/a | n/a |
| O=C(O)C1N=C(c2ccccc2)c2cc(Cl)ccc2NC1=O (centres undefined) | n/a | n/a | 3 | -4.103 | n/a | n/a | 0.09 | n/a |

Source: data files of OPERA 2.9 (Mansouri et al.), github.com/kmansouri/OPERA.